Results taken from patent publication EP0629400B1, “Idebenone compositions for treating Alzheimer's disease” (TAKEDA CHEMICAL INDUSTRIES, LTD., priority 1993, dated 1994).

Test: in vivo
Conditions: mouse

SMILES: COC1=C(OC)C(=O)C(CCCCCCCCCCO)=C(C)C1=O [idebenone, 6-(10-hydroxydecyl)-2,3-dimethoxy-5-methyl-1,4-benzoquinone]
- LD50: > 10000 mg/kg
